The list shows a part of the results, in another mix than the full data. Active and inactive are the calls of the source.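 How the source made its calls: active means inhibition above the campaign mean plus 3 SD, with each screening campaign given its own cutoff (cut at about 60% in these data); inactive means the rest.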
Target: Nuclear receptor coactivator 1 (Homo sapiens) (UniProt Q15788)
Assay: NCOA1 GAL4-fusion reporter inhibition – cell-based, luminescence, primary screen (AID 588354);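 further: 0% = DMSO treated cells and 100% = gossypol at 36 µM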
Conditions: HEK293 GAL4-SRC1 luciferase reporter, at 3.6 µM, stronger effect = higher value

The chains behind the UniProt entries cited, without tags or fusion partners. Where a name states a change or a piece, a line headed by the entry shows the natural chain unless it says otherwise.
UniProt Q15788: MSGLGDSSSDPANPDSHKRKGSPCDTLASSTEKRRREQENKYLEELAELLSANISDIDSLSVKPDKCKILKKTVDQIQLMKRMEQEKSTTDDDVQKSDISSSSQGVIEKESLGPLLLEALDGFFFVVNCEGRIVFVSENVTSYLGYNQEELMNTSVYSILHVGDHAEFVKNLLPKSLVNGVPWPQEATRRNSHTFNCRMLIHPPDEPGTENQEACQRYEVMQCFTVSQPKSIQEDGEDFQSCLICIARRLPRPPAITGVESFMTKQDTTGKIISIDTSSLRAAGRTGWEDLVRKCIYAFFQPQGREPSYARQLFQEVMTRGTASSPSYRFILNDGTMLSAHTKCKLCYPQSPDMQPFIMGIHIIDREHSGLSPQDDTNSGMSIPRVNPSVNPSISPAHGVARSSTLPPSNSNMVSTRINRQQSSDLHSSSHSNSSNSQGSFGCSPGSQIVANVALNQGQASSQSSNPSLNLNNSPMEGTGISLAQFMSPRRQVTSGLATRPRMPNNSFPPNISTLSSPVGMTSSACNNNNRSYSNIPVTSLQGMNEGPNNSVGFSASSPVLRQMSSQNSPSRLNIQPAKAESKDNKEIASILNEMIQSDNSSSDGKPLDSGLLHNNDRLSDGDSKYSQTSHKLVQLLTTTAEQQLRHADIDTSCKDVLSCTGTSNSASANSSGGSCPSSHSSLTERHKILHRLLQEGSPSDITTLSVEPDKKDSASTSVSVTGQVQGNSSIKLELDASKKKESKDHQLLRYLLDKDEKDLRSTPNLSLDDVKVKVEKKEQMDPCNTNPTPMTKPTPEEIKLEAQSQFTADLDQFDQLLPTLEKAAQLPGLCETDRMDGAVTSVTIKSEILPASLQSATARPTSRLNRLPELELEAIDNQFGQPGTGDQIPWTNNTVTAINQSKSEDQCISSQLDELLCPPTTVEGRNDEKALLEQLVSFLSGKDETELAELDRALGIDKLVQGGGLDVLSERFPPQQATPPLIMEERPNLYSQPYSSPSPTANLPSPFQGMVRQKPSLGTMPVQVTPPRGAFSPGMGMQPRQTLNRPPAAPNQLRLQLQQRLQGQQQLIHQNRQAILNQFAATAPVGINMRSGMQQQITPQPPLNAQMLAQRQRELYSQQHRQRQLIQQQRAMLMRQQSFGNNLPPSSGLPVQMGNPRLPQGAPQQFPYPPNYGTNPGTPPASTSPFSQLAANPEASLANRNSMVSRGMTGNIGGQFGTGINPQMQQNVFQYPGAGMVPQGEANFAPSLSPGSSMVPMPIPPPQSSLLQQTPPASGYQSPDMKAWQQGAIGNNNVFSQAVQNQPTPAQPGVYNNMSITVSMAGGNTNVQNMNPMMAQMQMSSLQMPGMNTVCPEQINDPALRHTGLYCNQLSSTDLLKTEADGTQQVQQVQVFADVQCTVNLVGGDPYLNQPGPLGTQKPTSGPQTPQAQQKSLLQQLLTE

| SMILES | inhibition |
| --- | --- |
| O=P(Nc1nc2ccccc2s1)(c1ccccc1)c1ccccc1 | inactive: -8.2% |
| Nc1ccc(CCCCOc2ccccc2)cc1 | inactive: -35.2% |
| COc1ccc(N)c([N+](=O)[O-])c1[N+](=O)[O-] | inactive: -6.08% |
| O=P(Nc1ccccn1)(c1ccc(Br)cc1)c1ccc(Br)cc1 | inactive: -12.2% |
| CN(C)C1(CNC(=O)c2ccc(Cl)c(S(N)(=O)=O)c2)CCCCC1 | inactive: 2.6% |
| CN(C)C(=O)Oc1noc2ccccc12 | inactive: 8.44% |
| O=c1c2cc([N+](=O)[O-])ccc2[nH]c2c([N+](=O)[O-])cc([N+](=O)[O-])cc12 | inactive: -27.8% |
| Cc1ccccc1OP(=O)(Nc1ccccn1)Oc1ccccc1C | inactive: 14% |
| CC(NC(=O)COC(=O)C(O)(c1ccccc1)c1ccccc1)c1ccccc1 (stereo not given) | inactive: -5.67% |
| Cc1ccc(OP(=O)(Nc2ccccn2)Oc2ccc(C)cc2)cc1 | inactive: -28.9% |
| CC(=O)NC(SC(=S)N(CC(C)C)CC(C)C)C(Cl)(Cl)Cl (stereo not given) | inactive: 13% |
| COC(=O)c1cc2c(s1)N=C(c1ccccc1)N(C)P2(=O)N1CCOCC1 (stereo not given) | inactive: -15.4% |
| CCC(=O)N1C2C3N(C(=O)CC)C1C1N(C(=O)CC)C(C(N1C(=O)CC)N3C(=O)CC)N2C(=O)CC | inactive: -1.04% |
| O=C(OC1CN2CCC1CC2)c1ccccc1 (stereo not given) | inactive: 5.48% |
| O=P1(N(CCCl)CCCl)OCCC2CCCCN21 (stereo not given) | inactive: 5.02% |
| CCNC(=S)/N=C(\N)N[N+](=O)[O-] | inactive: -2.71% |
| O=C(NC1CCS(=O)(=O)C1)NP(=S)(Oc1ccccc1)Oc1ccccc1 (stereo not given) | inactive: -13.9% |
| Cc1ccc(NP(=O)(Oc2cccc(C)c2)Oc2cccc(C)c2)nc1 | inactive: 12% |
| c1ccc(-c2nn[nH]n2)c(-c2nn[nH]n2)c1 | inactive: 3.06% |
| CC(=O)Nc1ccc(Oc2c([N+](=O)[O-])cc([N+](=O)[O-])cc2[N+](=O)[O-])cc1 | inactive: 2.73% |
| CC(=O)Nc1ccc([As](=O)(O)O)c(O)c1 | inactive: 5.68% |
| COC(=O)C1(C)COP(=O)(NCc2ccccc2)OC1 (stereo not given) | inactive: -37.5% |
| N#C/C(=C\c1ccc(N(CCBr)CCBr)cc1)C(N)=O | inactive: -15.5% |
| CC(=O)c1ccc(N2CC2c2ccncc2)cc1 (stereo not given) | inactive: -33.2% |
| C[C@@H]1C=CCP(=O)(Oc2ccccc2)O1 (stereo not given in full) | inactive: -16.4% |

| SMILES | inhibition |
| --- | --- |
| C[C@H]1OP(=O)(Oc2ccccc2)C[C@@H]2O[C@@H]21 (stereo not given in full) | inactive: 0.36% |
| Cc1ccccc1CN(C)C(=O)COC(=O)C(O)(c1ccccc1)c1ccccc1 | inactive: -3.84% |
| CCc1cc(O)c([N+](=O)[O-])c(C)c1[N+](=O)[O-] | inactive: 2.51% |
| CC(C)(C)C(=O)NC(Sc1ccccc1)C(Cl)(Cl)Cl (stereo not given) | inactive: 6.28% |
| CCOc1ccc(C2=NCC(CBr)S2)cc1 (stereo not given) | inactive: 2.32% |
| O=P1(Nc2nc3ccc(Cl)cc3s2)COc2ccccc2O1 (stereo not given) | inactive: -26% |
| O=[N+]([O-])C1C(O)C(O)C([N+](=O)[O-])C(O)C1O (stereo not given) | inactive: -0.97% |
| CC(C)CC(=O)NC(Sc1ccc(Cl)cc1)C(Cl)(Cl)Cl (stereo not given) | inactive: -10.9% |
| Nc1cc(N)c2nonc2c1[N+](=O)[O-] | inactive: 4.31% |
| O=C(NC(Sc1ccncn1)C(Cl)(Cl)Cl)c1ccccc1 (stereo not given) | inactive: 5.23% |
| Oc1ccccc1CNc1ccccn1 | inactive: 5.24% |
| Cc1ccc(OP(=O)(Nc2nccs2)Oc2ccc(C)cc2)cc1 | inactive: 8.4% |
| COc1ccccc1OP(=O)(Nc1ccc(C)cn1)Oc1ccccc1OC | inactive: -3.34% |
| Clc1ccc(Cl)c(NC2=NCC(CBr)S2)c1 (stereo not given) | inactive: -22.5% |
| CN1CCCC(OC(=O)C(c2ccccc2)c2ccccc2)C1 (stereo not given) | inactive: 2.41% |
| NC(=O)c1cc([N+](=O)[O-])cc([N+](=O)[O-])c1N | inactive: 4.23% |
| Cc1ccc(N/C(=N/P(=O)(N2CCOCC2)N2CCOCC2)N2CCOCC2)cc1 | inactive: -14.1% |
| CN(C(=O)Cc1ccc(Cl)c(Cl)c1)[C@H]1CCCC[C@H]1N1CCCC1 | inactive: 7.39% |
| CCN(N=Nc1nonc1N)c1nonc1N | inactive: 17.6% |
| Nc1cccc2ccc([As](=O)(O)O)cc12 | inactive: 2.94% |
| Cc1ccc(NP(=O)(Oc2ccccc2F)Oc2ccccc2F)nc1 | inactive: 1.97% |
| CN(C(=O)Cc1ccc(Cl)c(Cl)c1)[C@H]1CCCC[C@@H]1N1CCCC1 | inactive: 4.2% |
| CCOP(=O)(Nc1ccccc1)OCC | inactive: 2.84% |
| Cc1cc(SC(NC(=O)c2ccc(F)cc2)C(Cl)(Cl)Cl)ncn1 (stereo not given) | inactive: 0.58% |
| CCCC1OP(N)(=O)OCC1CC (stereo not given) | inactive: -0.4% |

| SMILES | inhibition |
| --- | --- |
| O=C(O)c1ccccc1[As](=O)(O)O | inactive: 12.4% |
| CC(=O)Nc1ccc([As](=O)(O)O)cc1 | inactive: 16.9% |
| CN(C)P(=O)(N(C)C)n1c(Nc2ccccc2)nnc1-c1ccccc1 | inactive: -92.8% |
| O=P(Nc1nc2ccc(Cl)cc2s1)(c1ccccc1)c1ccccc1 | inactive: -4.5% |
| O=[N+]([O-])c1cccc(NC2=NCC(CBr)S2)c1 (stereo not given) | inactive: 13.5% |
| COC(=O)C1(C)COP(=O)(Nc2ccccc2)OC1 (stereo not given) | inactive: 1.57% |
| O=C(O)CNc1ccc([As](=O)(O)O)cc1 | inactive: 2.8% |
| CC(C)(C)C(=O)NC(Sc1ccncn1)C(Cl)(Cl)Cl (stereo not given) | inactive: 8.16% |
| O=[N+]([O-])c1ncn(CCn2ncnc2[N+](=O)[O-])n1 | inactive: -7.06% |
| O=C(Nc1cc([As](=O)(O)O)ccc1O)c1ccccc1 | inactive: -20.2% |
| O=P1(N(CCCl)CCCl)OCCCS1 (stereo not given) | inactive: 9.45% |
| CN(C)C(=O)OCCc1n(C)cc[n+]1C | inactive: 16.7% |
| CC(C)=N/N=C(\N)N[N+](=O)[O-] | inactive: 0.4% |
| CC(C)c1nc(Nc2ccccc2)n(P(=O)(N(C)C)N(C)C)n1 | inactive: 7.22% |
| c1cc(-c2nn[nH]n2)ccc1-c1nn[nH]n1 | inactive: -3.27% |
| CC1CCN(C(=O)Oc2c(Cl)cc(Cl)c3cccnc23)CC1 | inactive: -12.5% |
| C[N+]1=C2C=CC=CC=C2SC12C([N+](=O)[O-])=CC([N+](=O)[O-])=C[C-]2[N+](=O)[O-] (stereo not given) | inactive: -70.3% |
| Nc1ccc([As](=O)(O)c2ccc(N)cc2)cc1 | inactive: -16.6% |
| CCN(/C(=N/P(=O)(N1CCOCC1)N1CCOCC1)N1CCOCC1)c1ccc(OC)cc1 | inactive: 2.57% |
| O=[N+]([O-])c1cccc2n[nH]nc12 | inactive: 2.95% |
| CC(=O)N1C2C3N(C(C)=O)C1C1N(C(C)=O)C(C(N1C(C)=O)N3C(C)=O)N2C(C)=O | inactive: -4.43% |
| CCc1nc2c(n1)c1c(non1O)c1c2no[n+]1[O-] | inactive: -21.1% |
| O=[N+]([O-])c1cc([N+](=O)[O-])c(CCNc2ccccc2)c([N+](=O)[O-])c1 | inactive: -14.5% |
| Cc1ccc(NP(=O)(Oc2ccccc2)Oc2ccccc2)nc1 | inactive: 5.11% |
| COc1ccc(C2=NCC(CBr)S2)cc1 (stereo not given) | inactive: 2.37% |
